{"sequences": {"note": "The chains behind the UniProt entries cited, without tags or fusion partners.", "UniProt P14416, whole entry": "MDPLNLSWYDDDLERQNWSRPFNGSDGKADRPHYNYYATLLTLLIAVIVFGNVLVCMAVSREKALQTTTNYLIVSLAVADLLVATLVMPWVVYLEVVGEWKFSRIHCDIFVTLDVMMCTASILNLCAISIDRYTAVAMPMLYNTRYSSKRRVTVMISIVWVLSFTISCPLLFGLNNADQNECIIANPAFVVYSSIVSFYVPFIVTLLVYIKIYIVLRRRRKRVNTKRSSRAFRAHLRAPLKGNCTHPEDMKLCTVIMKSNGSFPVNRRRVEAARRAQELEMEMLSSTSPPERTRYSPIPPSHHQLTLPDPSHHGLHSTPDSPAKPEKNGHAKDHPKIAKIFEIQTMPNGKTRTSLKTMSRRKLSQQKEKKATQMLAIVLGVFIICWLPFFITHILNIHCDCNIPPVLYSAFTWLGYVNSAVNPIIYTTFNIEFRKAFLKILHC"}, "source": "ChEMBL document CHEMBL5113485", "about": "“Distal kinetic deuterium isotope effect: Phenyl ring deuteration attenuates N-demethylation of Lu AF35700” (Bioorg Med Chem Lett, 2022)", "target": "D(2) dopamine receptor (Homo sapiens, UniProt P14416)", "assay": "Displacement of [3H]7-OH-DPAT from recombinant human D2S receptor measured after 60 mins by scintillation counting analysis", "note": "pKi: −log10 of the molar value."}
{"smiles": "[2H]c1c([2H])c([2H])c([C@@H]2C[C@@H](N3CCN(C([2H])([2H])[2H])C(C)(C)C3)c3cc(Cl)ccc32)c([2H])c1[2H]", "values": [{"measurement": "pKi", "value": 8.39}]}
